These are literature values, as cited in article PMC3476531, “Synergy of Peptide and Sugar in O-GlcNAcase Substrate Recognition” (Chemistry & Biology, 2012).

Amino acid sequences for entries named in this document (tags omitted).
UniProt O60502, whole entry: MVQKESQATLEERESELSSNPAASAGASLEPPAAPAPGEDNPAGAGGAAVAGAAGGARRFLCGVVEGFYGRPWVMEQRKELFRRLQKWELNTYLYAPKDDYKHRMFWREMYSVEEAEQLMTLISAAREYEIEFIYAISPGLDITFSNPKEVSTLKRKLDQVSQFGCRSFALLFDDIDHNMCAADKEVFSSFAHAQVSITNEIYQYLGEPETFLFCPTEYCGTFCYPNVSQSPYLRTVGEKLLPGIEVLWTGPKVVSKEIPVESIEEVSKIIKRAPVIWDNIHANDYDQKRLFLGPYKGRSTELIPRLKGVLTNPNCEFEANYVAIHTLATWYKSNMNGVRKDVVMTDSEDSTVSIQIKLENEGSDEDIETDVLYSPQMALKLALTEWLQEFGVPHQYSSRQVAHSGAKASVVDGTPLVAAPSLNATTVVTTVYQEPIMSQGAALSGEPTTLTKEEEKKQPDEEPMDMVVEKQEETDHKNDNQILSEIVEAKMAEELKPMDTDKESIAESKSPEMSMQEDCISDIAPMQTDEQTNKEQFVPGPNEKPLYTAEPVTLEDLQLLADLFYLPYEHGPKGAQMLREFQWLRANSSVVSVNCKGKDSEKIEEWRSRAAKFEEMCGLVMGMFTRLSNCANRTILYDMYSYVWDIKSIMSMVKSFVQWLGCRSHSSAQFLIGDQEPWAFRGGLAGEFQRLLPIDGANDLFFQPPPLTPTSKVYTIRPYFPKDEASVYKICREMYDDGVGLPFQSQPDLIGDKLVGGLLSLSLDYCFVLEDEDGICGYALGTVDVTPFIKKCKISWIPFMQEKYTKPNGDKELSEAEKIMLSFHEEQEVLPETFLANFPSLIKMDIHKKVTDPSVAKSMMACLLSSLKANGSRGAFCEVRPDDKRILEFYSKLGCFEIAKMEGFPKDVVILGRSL

By Km is commonly meant the substrate concentration at which the rate is half of its maximum.

In the series the target is hOGA (Homo sapiens, UniProt O60502). The note with it: read-out: Michaelis constant (KM) of glycopeptide substrate for hOGA; wild-type hOGA; substrate competition assay with 4MU-GlcNAc; value reproduced from earlier paper; ref Schimpl et al., 2010; cited from earlier work.

On to `CC(=O)N[C@H]1[C@H](OC[C@H](NC(=O)[C@H](Cc2c[nH]cn2)NC(=O)[C@H](C)NC(=O)[C@@H](NC(C)=O)C(C)C)C(=O)NCC(=O)N[C@@H](C)C(N)=O)O[C@H](CO)[C@@H](O)[C@@H]1O`, for which the Km was 1200 µM.
